Test results: patent US20120058206A1, “ANTIALLERGIC MARINE BIOPOLYMERS” (MARINOMED BIOTECHNOLOGIE GMBH, priority 2008, published 2012)
Read-outs that look alike come from different tables or passages of the source.

What was measured:
[1] = cited from earlier work
[2] = intranasal, 300 μl (270 μg escin) in 0.12% wt iota-carrageenan solution, four times daily for five days
[3] = human patients, oral, repeatedly 50 mg escin twice daily

escin
average plasma level of escin [1, 3]: 10 ng/mL | maximum plasma concentration of escin [1, 3]: 16 to 18 ng/mL | plasma levels of escin [1, 3]: lower than 20 ng/ml | peak levels of escin in blood plasma ([1]; volunteers, 50 mg tablets): 16-18 ng escin per 1 ml | maximum plasma concentration of escin [2]: about 90 ng/ml | time of peak plasma concentration of escin ([2]; after last application): 6 h
